This is an account of results in patent US10188770B2, “Dental implant having enhanced early stability and method for manufacturing same” (OSSTEMIMPLANT CO., LTD., priority 2014, dated 2019).

This assay has as its system implant-bone interface. The experiment in a line: Removal torque of coated implants just after coating and after 3-year storage. Type of assay: in vivo. The note with it: storage period 3 year; implants coated with 10 ml solution of 40 μg bisphosphonate and 1 μg rhBMP-2. The protocol: In order to confirm the long-time storage stabilities of implant, osseointegration at implant-bone interface were measured via removal torque.
Each dental implant was coated with various bisphosphonates as described example 1 and its removal torque was measured just after coating step and 3-year self-storage, respectively.
Similarly, osseointegration at implant-bone interface were measured via removal torque for dental implants wherein the osteoclast activity inhibitor coating film further comprises a bone growth factor (BMP-2) as shown in Table 2.

As to `O=P(O)(O)C(O)(Cc1cccnc1)P(=O)(O)O` [Resendronate], the Removal torque came to 108.1 ± 11.6.
